Structures can show the parent of a compound that is named as a salt.
Biological target: sigma1-receptor (Cavia porcellus (Guinea pig), UniProt Q60492)
Experiment: sigma-1 receptor binding assay, [3H]-(+)-pentazocine, brain membranes
Details: [3H]-(+)-pentazocine 5.0 nM, 150 min at 37° C., read-out: Ki (σ1)
Experimental: (w/v) of Tris-HCl 50 mM 0.32 M sucrose, pH 7.4, with a Kinematica Polytron PT 3000 at 15000 r.p.m. for 30 s.
Guinea pig brains were homogenized in 10 vols. (w/v) of Tris-HCl 50 mM 0.32 M sucrose, pH 7.4, with a Kinematica Polytron PT 3000 at 15000 r.p.m. for 30 s. The homogenate was centrifuged at 1000 g for 10 min at 4° C. and the supernatants collected and centrifuged again at 48000 g for 15 min at 4° C. The pellet was resuspended in 10 volumes of Tris-HCl buffer (50 mM, pH 7.4), incubated at 37° C. for 30 min, and centrifuged at 48000 g for 20 min at 4° C. Following this, the pellet was re-suspended in fresh Tris-HCl buffer (50 mM, pH 7.4) and stored on ice until use.
The radioligand used was [^3H]-(+)-pentazocine at 5.0 nM and the final volume was 200 μl. The incubation was initiated with the addition of 100 μl of membrane at a final tissue concentration of approximately 5 mg tissue net weight/mL and the incubation time was 150 m. at 37° C. After incubation, the membranes were collected onto pretreated glass fiber filterplate (MultiScreen-FC, Millipore), with polyethylenimine 0.1%. The filters were washed two times with 200 μl of washing buffer (50 mM Tris Cl, pH=7.4) and then 25 μl of Ecoscint H liquid scintillation cocktail were added. Microplates were allowed to set for several hours and then quantified by liquid scintillation spectrophotometry (1450 Microbeta, Wallac). Nonspecific binding was determined with 1 μM haloperidol.

The chains behind the UniProt entries cited, without tags or fusion partners.
UniProt Q60492, whole entry: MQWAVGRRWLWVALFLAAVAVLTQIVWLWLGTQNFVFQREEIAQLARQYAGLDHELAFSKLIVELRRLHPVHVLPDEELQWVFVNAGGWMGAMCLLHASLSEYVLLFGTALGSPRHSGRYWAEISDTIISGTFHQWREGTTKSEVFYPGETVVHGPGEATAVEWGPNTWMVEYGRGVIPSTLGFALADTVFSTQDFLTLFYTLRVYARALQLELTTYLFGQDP

Compound | Ki
Clc1ccc(Cn2cc(NCCCN3CCCCC3)nn2)cc1Cl [Example 10, 1-(3,4-dichlorobenzyl)-N-(3-(piperidin-1-yl)propyl)-1H-1,2,3-triazol-4-amine hydrochloride] | 34.8 nM
c1c(NCCN2CCCCCC2)nnn1C12CC3CC(CC(C3)C1)C2 [Example 14, N-(2-(azepan-1-yl)ethyl)-1-(1-adamantyl)-1H-1,2,3-triazol-4-amine hydrochloride] | 10.8 nM
c1ccc(Cn2cc(NCCN3CCCC3)nn2)cc1 [Example 19, 1-benzyl-N-(2-(pyrrolidin-1-yl)ethyl)-1H-1,2,3-triazol-4-amine hydrochloride] | 214 nM
c1c(NCCN2CCN(C3CCCCC3)CC2)nnn1C1CCCCC1 [Example 30, 1-cyclohexyl-N-(2-(4-cyclohexylpiperazin-1-yl)ethyl)-1H-1,2,3-triazol-4-amine hydrochloride] | 62.5 nM
Fc1ccc(Cn2cc(NCCN3CCN(C4CCCCC4)CC3)nn2)cc1 [Example 34, N-(2-(4-cyclohexylpiperazin-1-yl)ethyl)-1-(4-fluorobenzyl)-1H-1,2,3-triazol-4-amine] | 133 nM
CC(=O)N1CCN(CCNc2cn(-c3ccc(Cl)c(Cl)c3)nn2)CC1 [Example 51, 1-(4-(2-(1-(3,4-dichlorophenyl)-1H-1,2,3-triazol-4-ylamino)ethyl)piperazin-1-yl)ethanone hydrochloride] | 275 nM
CC(=O)N(CCN1CCOCC1)c1cn(C23CC4CC(CC(C4)C2)C3)nn1 [Example 57, N-(1-(1-adamantyl)-1H-1,2,3-triazol-4-yl)-N-(2-morpholinoethyl)acetamide hydrochloride] | 71.5 nM
CCN(CCN1CCOCC1)c1cn(C23CC4CC(CC(C4)C2)C3)nn1 [Example 64, 1-(1-adamantyl)-N-ethyl-N-(2-morpholinoethyl)-1H-1,2,3-triazol-4-amine hydrochloride] | 111 nM
CCN(CCN1CCOCC1)c1cn(-c2ccc(Cl)c(Cl)c2)nn1 [Example 65, 1-(3,4-dichlorophenyl)-N-ethyl-N-(2-morpholinoethyl)-1H-1,2,3-triazol-4-amine hydrochloride] | 216 nM

Source: patent publication US9611229B2, “1,2,3-triazole-4-amine derivatives for the treatment of sigma receptor related diseases and disorders” (LABORATORIOS DEL DR. ESTEVE S.A., priority 2013, dated 2017)
